Earlier results on 1 substance are cited in patent US20260234568A1, “TUMOR STORAGE AND CELL CULTURE COMPOSITIONS” (Iovance Biotherapeutics, Inc., priority 2021, published 2026).

The conditions of this series: rhIL-2 lot 10200121 (Cellgenix), 1 mg vial, per COA; cited from earlier work.

For the substance “rhIL-2: purified, lyophilized recombinant human interleukin-2; lot 10200121 (Cellgenix)”, the specific activity is recorded as 25×10^6 IU/mg.
